One may read the IC50 as the concentration needed to halve the response being measured. Higher therefore signals weaker potency in that assay.

Sequences of proteins named here, by UniProt entry; tags and fusion partners are left off.
UniProt Q00535, whole entry: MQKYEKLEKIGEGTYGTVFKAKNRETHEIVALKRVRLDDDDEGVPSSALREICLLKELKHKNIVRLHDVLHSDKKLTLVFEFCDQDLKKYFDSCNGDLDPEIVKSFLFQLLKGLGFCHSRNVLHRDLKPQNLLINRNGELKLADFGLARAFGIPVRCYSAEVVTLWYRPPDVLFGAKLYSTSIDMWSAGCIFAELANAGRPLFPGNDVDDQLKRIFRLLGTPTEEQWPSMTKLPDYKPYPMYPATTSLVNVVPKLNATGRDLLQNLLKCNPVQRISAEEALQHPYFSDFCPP

Our source for the IC50 values is PMC6225322, “Development of Kinase Inhibitors via Metal-Catalyzed C–H Arylation of 8-Alkyl-thiazolo[5,4-f]-quinazolin-9-ones Designed by Fragment-Growing Studies” (Molecules : A Journal of Synthetic Chemistry and Natural …, 2018).

The experiment concerns the target T1, CDK5/p25 (Homo sapiens, UniProt Q00535).
T1 construct: made in house
Kind of experiment: CDK5/p25 in vitro kinase assay (33P-ATP, histone H1). The format is biochemical.

As to `COc1ccc2c(c1)[nH]c1c(C)nccc12` [Harmine, reference compound], the half-maximal inhibitory concentration (IC50) was over 10 µM.
